The source of these data is patent US20090136537A1, “Lipopeptide compositions and methods of use therof” (priority 2005, published 2009).

This data set is described as follows: UV absorbance spectroscopy, A280/A350 ratio as indicator of solubility. Type of data set: physicochemical. The settings on record: for A280/A350 ratio F106: lipopeptide 1 mg/mL in F106, diluted from 20 mg/mL DMSO stock; for A280/A350 ratio F111: lipopeptide 1 mg/mL in F111, diluted from 20 mg/mL DMSO stock. The method, then:
UV absorbance spectroscopy UV absorbance measurements were performed to determine the peptide concentration and the A280/A350 ratio. For Pam3Cys.M2e (FIG. 1) the peptide concentration was determined using the following equation.
To determine the effect of polysorbate-80 (PS-80) and hydroxypropyl-ÿ-cyclodextrin (HPBCD) on the solubility of a composition comprising a lipopeptide (Pam3Cys) and an antigen (M2e) (the Pam3Cys.M2e fusion protein), four formulations (the components of which are shown in the Table 1, supra) were prepared, each containing 1 mg/mL Pam3Cys.M2e. Pam3Cys.M2e was dispensed into each formulation at room temperature and mixed by vortexing. After mixing, the UV absorbance spectrum of Pam3Cys.M2e was determined in each formulation, compared to the same formulation without Pam3Cys.M2e as the blank. The UV absorbance of Pam3Cys.M2e at 280 nm is due entirely to the presence of tryptophan in the peptide sequence. […] Therefore, a higher A280/A350 absorbance ratio is indicative of higher solubility.

As to `CCCCCCCCCCCCCCCC(=O)N[C@@H](CSCC(COC(=O)CCCCCCCCCCCCCCC)OC(=O)CCCCCCCCCCCCCCC)C(=O)N[C@@H](CCC(=O)O)C(=O)N[C@@H](CC(C)C)C(=O)N[C@@H](CCC(=O)O)C(=O)N1CCC[C@H]1C(=O)N1CCC[C@H]1C(=O)N[C@@H](Cc1ccccc1)C(=O)NCC(=O)N[C@@H](CC(=O)O)C(=O)N[C@@H](CO)C(=O)N[C@@H](Cc1ccc(O)cc1)C(=O)N[C@H](C(=O)N[C@H](C(=O)N[C@H](C(=O)NCC(=O)N[C@@H](CCCNC(=N)N)C(=O)NCC(=O)N[C@@H](CCC(=O)O)C(=O)N[C@@H](CCC(N)=O)C(=O)N[C@@H](CCC(N)=O)C(=O)N[C@H](C(=O)N[C@@H](CC(N)=O)C(=O)N[C@@H](Cc1c[nH]cn1)C(=O)N[C@@H](Cc1c[nH]cn1)C(=O)N[C@@H](Cc1c[nH]c2ccccc12)C(=O)N[C@@H](Cc1c[nH]cn1)C(=O)N[C@@H](CCCCN)C(=O)N[C@@H](CO)C(=O)O)[C@@H](C)CC)C(C)C)C(C)C)[C@@H](C)CC` (stereo partly drawn) [Pam3Cys.WNE.1], the “A280/A350 ratio F106” value worked out at 6.8 and the “A280/A350 ratio F111” value is given as 6.4.
As to `CCCCCCCCCCCCCCCC(=O)N[C@@H](CSCC(COC(=O)CCCCCCCCCCCCCCC)OC(=O)CCCCCCCCCCCCCCC)C(=O)N[C@@H](CCC(=O)O)C(=O)N[C@@H](C)C(=O)N[C@@H](CCC(=O)O)C(=O)N1CCC[C@H]1C(=O)N1CCC[C@H]1C(=O)N[C@@H](Cc1ccccc1)C(=O)NCC(=O)N[C@@H](CC(=O)O)C(=O)N[C@@H](CO)C(=O)N[C@@H](Cc1ccc(O)cc1)C(=O)N[C@H](C(=O)N[C@H](C(=O)N[C@H](C(=O)NCC(=O)N[C@H](C(=O)N[C@@H](CCC(=O)O)C(=O)N1CCC[C@H]1C(=O)N[C@@H](CCC(N)=O)C(=O)N[C@@H](CCC(N)=O)C(=O)N[C@@H](CC(C)C)C(=O)N[C@@H](CCCCN)C(=O)N[C@@H](CC(C)C)C(=O)N[C@@H](CC(N)=O)C(=O)N[C@@H](Cc1c[nH]c2ccccc12)C(=O)N[C@@H](Cc1ccccc1)C(=O)N[C@@H](CCCCN)C(=O)N[C@@H](CCCCN)C(=O)O)C(C)C)[C@@H](C)CC)[C@@H](C)CC)[C@@H](C)CC` (stereo partly drawn) [Pam3Cys.DEN.1], the “A280/A350 ratio F106” value is given as 11.8 and the “A280/A350 ratio F111” value stood at 14.7.
Regarding `CCCCCCCCCCCCCCCC(=O)N[C@@H](CSCC(COC(=O)CCCCCCCCCCCCCCC)OC(=O)CCCCCCCCCCCCCCC)C(=O)N[C@@H](CCC(=O)O)C(=O)N[C@@H](CCSC)C(=O)N[C@@H](CCC(=O)O)C(=O)N1CCC[C@H]1C(=O)N1CCC[C@H]1C(=O)N[C@@H](Cc1ccccc1)C(=O)NCC(=O)N[C@@H](CC(=O)O)C(=O)N[C@@H](CO)C(=O)N[C@@H](Cc1ccc(O)cc1)C(=O)N[C@H](C(=O)N[C@H](C(=O)N[C@H](C(=O)NCC(=O)N[C@@H](CCSC)C(=O)NCC(=O)N[C@@H](CC(=O)O)C(=O)N[C@@H](CCCCN)C(=O)N[C@@H](CCC(N)=O)C(=O)N[C@H](C(=O)N[C@@H](CC(N)=O)C(=O)N[C@@H](Cc1c[nH]cn1)C(=O)N[C@@H](Cc1c[nH]cn1)C(=O)N[C@@H](Cc1c[nH]c2ccccc12)C(=O)N[C@@H](Cc1c[nH]cn1)C(=O)N[C@@H](CCCCN)C(=O)N[C@@H](C)C(=O)O)[C@@H](C)CC)C(C)C)C(C)C)[C@@H](C)CC` (stereo partly drawn) [Pam3Cys.JEE.1], the “A280/A350 ratio F106” value is listed as 27.1 and the “A280/A350 ratio F111” value is given as 31.8.
